What was measured:
[1] = target: T1, mouse MC3R (Mus musculus, UniProt P33033); experiment: cell-based
[2] = target: T1, mouse MC3R; experiment: cAMP AlphaScreen antagonist assay
[3] = target: T2, mouse MC4R (Mus musculus, UniProt P56450); experiment: cAMP AlphaScreen antagonist assay
[4] = target: T2, mouse MC4R; experiment: cAMP AlphaScreen agonist assay, HEK293 cells stably expressing mouse MC4R

Amino acid sequences for entries named in this document (tags omitted). A change or cut given only in a name is not applied to a line headed by its entry.
UniProt P33033: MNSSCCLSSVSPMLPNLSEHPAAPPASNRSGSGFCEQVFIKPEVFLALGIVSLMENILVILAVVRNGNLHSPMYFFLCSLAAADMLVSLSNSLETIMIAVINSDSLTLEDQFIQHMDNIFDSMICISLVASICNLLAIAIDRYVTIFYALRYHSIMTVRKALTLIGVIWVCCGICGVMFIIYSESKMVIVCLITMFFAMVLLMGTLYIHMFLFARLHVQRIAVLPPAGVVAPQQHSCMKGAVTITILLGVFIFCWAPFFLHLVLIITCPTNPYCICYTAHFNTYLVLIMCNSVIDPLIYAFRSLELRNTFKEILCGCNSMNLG
UniProt P56450, whole entry: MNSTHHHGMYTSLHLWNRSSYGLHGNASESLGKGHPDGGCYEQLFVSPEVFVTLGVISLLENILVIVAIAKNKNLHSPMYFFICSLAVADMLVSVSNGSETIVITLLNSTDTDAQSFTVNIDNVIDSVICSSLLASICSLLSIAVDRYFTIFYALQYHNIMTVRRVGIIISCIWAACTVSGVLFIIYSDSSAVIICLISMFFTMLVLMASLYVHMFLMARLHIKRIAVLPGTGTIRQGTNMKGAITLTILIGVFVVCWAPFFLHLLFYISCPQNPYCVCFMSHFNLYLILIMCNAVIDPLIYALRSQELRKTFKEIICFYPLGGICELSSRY

| Structure (SMILES) | EC50 [1] | Kb [2] | Kb [3] | EC50 [4] |
| --- | --- | --- | --- | --- |
| C[C@@H]1NC(=O)[C@H](CC(N)=O)NC(=O)[C@H](Cc2ccccc2)NC(=O)[C@H](Cc2ccccc2)NC(=O)[C@@H](CCCNC(=N)N)NC(=O)[C@@H]2CCCN2C(=O)[C@H]2CCCN2C(=O)[C@H](Cc2ccccc2)NC1=O [Peptide 3, c[Pro-DArg-Phe-Phe-Asn-Ala-Phe-DPro]] | > 100 µM | > 3.16 µM |  |  |
| C[C@@H]1NC(=O)[C@H](CC(N)=O)NC(=O)[C@H](Cc2ccccc2)NC(=O)[C@@H](Cc2ccccc2)NC(=O)[C@H](CCCNC(=N)N)NC(=O)[C@@H]2CCCN2C(=O)[C@H]2CCCN2C(=O)[C@H](Cc2ccccc2)NC1=O [Peptide 4, c[Pro-Arg-DPhe-Phe-Asn-Ala-Phe-DPro]] | > 100 µM | 1.58 µM |  |  |
| C[C@@H]1NC(=O)[C@H](CC(N)=O)NC(=O)[C@@H](Cc2ccccc2)NC(=O)[C@H](Cc2ccccc2)NC(=O)[C@H](CCCNC(=N)N)NC(=O)[C@@H]2CCCN2C(=O)[C@H]2CCCN2C(=O)[C@H](Cc2ccccc2)NC1=O [Peptide 5, c[Pro-Arg-Phe-DPhe-Asn-Ala-Phe-DPro]] | > 100 µM | > 3.16 µM |  |  |
| C[C@@H]1NC(=O)[C@H](CC(N)=O)NC(=O)[C@H](Cc2ccccc2)NC(=O)[C@@H](Cc2ccccc2)NC(=O)[C@@H](CCCNC(=N)N)NC(=O)[C@@H]2CCCN2C(=O)[C@H]2CCCN2C(=O)[C@H](Cc2ccccc2)NC1=O [Peptide 6, c[Pro-DArg-DPhe-Phe-Asn-Ala-Phe-DPro]] | > 100 µM | > 3.16 µM |  |  |
| C[C@@H]1NC(=O)[C@H](CC(N)=O)NC(=O)[C@@H](Cc2ccccc2)NC(=O)[C@H](Cc2ccccc2)NC(=O)[C@@H](CCCNC(=N)N)NC(=O)[C@@H]2CCCN2C(=O)[C@H]2CCCN2C(=O)[C@H](Cc2ccccc2)NC1=O [Peptide 7, c[Pro-DArg-Phe-DPhe-Asn-Ala-Phe-DPro]] |  | > 3.16 µM |  |  |
| C[C@@H]1NC(=O)[C@H](CC(N)=O)NC(=O)[C@@H](Cc2ccccc2)NC(=O)[C@@H](Cc2ccccc2)NC(=O)[C@H](CCCNC(=N)N)NC(=O)[C@@H]2CCCN2C(=O)[C@H]2CCCN2C(=O)[C@H](Cc2ccccc2)NC1=O [Peptide 8, c[Pro-Arg-DPhe-DPhe-Asn-Ala-Phe-DPro]] | > 100 µM | > 3.16 µM |  |  |
| C[C@@H]1NC(=O)[C@H](CC(N)=O)NC(=O)[C@@H](Cc2ccccc2)NC(=O)[C@@H](Cc2ccccc2)NC(=O)[C@@H](CCCNC(=N)N)NC(=O)[C@@H]2CCCN2C(=O)[C@H]2CCCN2C(=O)[C@H](Cc2ccccc2)NC1=O [Peptide 9, c[Pro-DArg-DPhe-DPhe-Asn-Ala-Phe-DPro]] | > 100 µM | > 3.16 µM |  |  |
| C[C@@H]1NC(=O)[C@H](CN)NC(=O)[C@H](Cc2ccccc2)NC(=O)[C@H](Cc2ccccc2)NC(=O)[C@@H](CCCNC(=N)N)NC(=O)[C@@H]2CCCN2C(=O)[C@H]2CCCN2C(=O)[C@H](Cc2ccccc2)NC1=O [Peptide 10, c[Pro-DArg-Phe-Phe-Dap-Ala-Phe-DPro]] |  |  | 0.17 µM |  |
| C[C@@H]1NC(=O)[C@H](CN)NC(=O)[C@H](Cc2ccccc2)NC(=O)[C@@H](Cc2ccccc2)NC(=O)[C@H](CCCNC(=N)N)NC(=O)[C@@H]2CCCN2C(=O)[C@H]2CCCN2C(=O)[C@H](Cc2ccccc2)NC1=O [Peptide 11, c[Pro-Arg-DPhe-Phe-Dap-Ala-Phe-DPro]] |  |  | 0.00398 µM |  |
| C[C@@H]1NC(=O)[C@H](CN)NC(=O)[C@@H](Cc2ccccc2)NC(=O)[C@H](Cc2ccccc2)NC(=O)[C@H](CCCNC(=N)N)NC(=O)[C@@H]2CCCN2C(=O)[C@H]2CCCN2C(=O)[C@H](Cc2ccccc2)NC1=O [Peptide 12, c[Pro-Arg-Phe-DPhe-Dap-Ala-Phe-DPro]] |  |  | 0.0457 µM | > 100 µM |
| C[C@@H]1NC(=O)[C@H](CN)NC(=O)[C@H](Cc2ccccc2)NC(=O)[C@@H](Cc2ccccc2)NC(=O)[C@@H](CCCNC(=N)N)NC(=O)[C@@H]2CCCN2C(=O)[C@H]2CCCN2C(=O)[C@H](Cc2ccccc2)NC1=O [Peptide 13, c[Pro-DArg-DPhe-Phe-Dap-Ala-Phe-DPro]] |  |  |  | > 100 µM |
| C[C@@H]1NC(=O)[C@H](CN)NC(=O)[C@@H](Cc2ccccc2)NC(=O)[C@H](Cc2ccccc2)NC(=O)[C@@H](CCCNC(=N)N)NC(=O)[C@@H]2CCCN2C(=O)[C@H]2CCCN2C(=O)[C@H](Cc2ccccc2)NC1=O [Peptide 14, c[Pro-DArg-Phe-DPhe-Dap-Ala-Phe-DPro]] |  |  | 0.151 µM | > 100 µM |
| C[C@@H]1NC(=O)[C@H](CN)NC(=O)[C@@H](Cc2ccccc2)NC(=O)[C@@H](Cc2ccccc2)NC(=O)[C@H](CCCNC(=N)N)NC(=O)[C@@H]2CCCN2C(=O)[C@H]2CCCN2C(=O)[C@H](Cc2ccccc2)NC1=O [Peptide 15, c[Pro-Arg-DPhe-DPhe-Dap-Ala-Phe-DPro]] |  |  | 0.0398 µM | > 100 µM |
| C[C@@H]1NC(=O)[C@H](CN)NC(=O)[C@@H](Cc2ccccc2)NC(=O)[C@@H](Cc2ccccc2)NC(=O)[C@@H](CCCNC(=N)N)NC(=O)[C@@H]2CCCN2C(=O)[C@H]2CCCN2C(=O)[C@H](Cc2ccccc2)NC1=O [Peptide 16, c[Pro-DArg-DPhe-DPhe-Dap-Ala-Phe-DPro]] |  |  | 1.58 µM | > 100 µM |

From publication PMC6339850 (ACS chemical neuroscience, 2018)
